Literature values as cited in patent publication US20220387398A1, “IMMUNE TOLERIZATION AGENTS AND POTENTIATORS” (priority 2019, published 2022).

By UniProt entry, the sequences of proteins in these tests, tags left out. Residues count along the entry.
UniProt P06276, 29-602, species assumed: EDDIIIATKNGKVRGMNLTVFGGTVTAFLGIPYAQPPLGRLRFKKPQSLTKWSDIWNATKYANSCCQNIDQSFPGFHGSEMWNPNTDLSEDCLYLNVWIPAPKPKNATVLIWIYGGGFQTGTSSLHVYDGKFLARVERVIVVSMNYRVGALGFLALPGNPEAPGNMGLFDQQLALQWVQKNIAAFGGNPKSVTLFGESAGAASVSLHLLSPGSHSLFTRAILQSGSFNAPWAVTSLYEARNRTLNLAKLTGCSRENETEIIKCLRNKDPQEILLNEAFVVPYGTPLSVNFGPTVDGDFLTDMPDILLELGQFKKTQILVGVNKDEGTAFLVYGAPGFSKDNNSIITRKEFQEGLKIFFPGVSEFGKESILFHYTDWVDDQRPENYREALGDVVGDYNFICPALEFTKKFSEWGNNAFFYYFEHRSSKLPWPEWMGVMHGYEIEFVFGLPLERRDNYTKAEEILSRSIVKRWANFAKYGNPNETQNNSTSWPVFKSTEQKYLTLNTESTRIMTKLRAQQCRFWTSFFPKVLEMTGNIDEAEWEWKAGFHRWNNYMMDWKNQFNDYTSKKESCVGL

Target: BChE (blood) (Homo sapiens, UniProt P06276)
Conditions: quantity and unit not given; cited from earlier work

CCN(C)C(=O)Oc1cccc([C@H](C)N(C)C)c1 [Rivastigmine, rivastigmine]
Esterase BChE (blood): 280 ± 110
